Experimental data taken from PubChem BioAssay (Tox21).
The entries are a selection whose mix differs from that of the whole data set. Records with an inconclusive call do not appear. Calls of active or inactive are those of the source. Calls come from the whole dose curve; as a rule, active = well fitted cell-killing curve with a large enough effect in the repeat runs; inconclusive = weak or mixed curves, or effect the other way; inactive = flat fitted curve, though single readings scatter.

Columns and labels:
[1] = cAMP Responsive Elements (CRE) small molecule antagonists, cell-based qHTS assay: qHTS cell viability counter screen (AID 2060913); conditions: CRE-bla HEK293T viability, CellTiter-Glo luminescence, 5 h; note: nearly all actives have a fitted effect of over 40% in size
Text: U.S. Tox21 Program National Center for Advancing Translational Sciences [NCATS] Division of Preclinical Innovation [DPI] U.S. Environmental Protection Agency [EPA] National Institutes of Environmental Health Sciences [NIEHS] National Toxicology Program [NTP] U.S. Food and Drug Administration [FDA] Tox21 Assay Overview: CREB (cyclic-AMP Responsive Element Binding Protein) is a cellular transcription factor. It binds to certain DNA sequences called cAMP Responsive Elements (CRE) and regulates the transcription of the genes. […] This cell line can be used to find agonists/antagonists of the cyclic AMP signaling pathway. The activation of the report gene under culture conditions can be detected by fluorescence intensity. […]
(§1) Tox21 Assay Protocol Summary: CRE-bla Hek 293T cells were suspended in assay medium (DMEM containing 10% dialyzed FBS, 0.1 mM NEAA, 1 mM sodium pyruvate and 25 mM HEPES) and dispensed at 2,000 cells/4 uL /well into 1536-well black wall/clear bottom plates using a Multidrop Combi (ThermoFisher Scientific, Waltham, MA) dispenser. […] The plates were incubated at room temperature for 2 h, then fluorescence intensities were measured using an Envision plate reader (PerkinElmer, Shelton, CT) at Excitation 405nm, Emission 460nm and 530nm. The % activity was determined from the ratio of 460nm/530nm. […]

[2] = cAMP Responsive Elements (CRE) small molecule agonists, cell-based qHTS assay: qHTS cell viability counter screen (AID 2060914); conditions: CRE-bla HEK293T viability, CellTiter-Glo luminescence, 5 h;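 note: viability read after 3 h of compound exposure; nearly all actives have a fitted effect of over 50% in size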
Text: National Center for Advancing Translational Sciences [NCATS]
Division of Preclinical Innovation [DPI]
U.S. Environmental Protection Agency [EPA]
National Institutes of Environmental Health Sciences [NIEHS]
National Toxicology Program [NTP]
U.S. Food and Drug Administration [FDA]
CREB (cyclic-AMP Responsive Element Binding Protein) is a cellular transcription factor. It binds to certain DNA sequences called cAMP Responsive Elements (CRE) and regulates the transcription of the genes. […] This cell line can be used to find agonists/antagonists of the cyclic AMP signaling pathway. The activation of the report gene under culture conditions can be detected by fluorescence intensity. […]
as §1, with “CRE-bla” for “Tox21 Assay Protocol Summary: CRE-bla”, “cells/5” for “cells/4”, “460nm/530nm. For cell viability readout that measures cytotoxicity, 4 uL /well of CellTiter-Glo reagent was added into the assay plates using Bioraptr FRD.” for “460nm/530nm.”
Potency is the fitted concentration of half-maximal effect.

N#CSc1ccc([N+](=O)[O-])cc1[N+](=O)[O-]
Potency [1]: active: 68.6 µM

O=[As]c1ccccc1 (configuration not stated)
Potency [2]: active: 5.45 µM
